Results reported in patent US20240100068A1, “METHODS COMPRISING ADMINISTRATION OF A GLUCOCORTICOID RECEPTOR AGONIST AND AN INHIBITOR OF CALCINEURIN” (Chengdu Anticancer Bioscience, Ltd., priority 2022, published 2024).

System: T2MycNick cells
Assay: Testing compounds for their ability of restoring contact inhibition (vacuolation, cell density)
Format: cell-based, murine
Settings: Mus musculus

How did the minimal effective concentration (read-out: Conc that reduces > 50% in the cell density) turn out when `C[C@@H]1C[C@H]2[C@@H]3C[C@H](F)C4=CC(=O)C=C[C@]4(C)[C@@]3(F)[C@@H](O)C[C@]2(C)[C@@]1(O)C(=O)CO` [CI044, Flumethasone] was run?
The minimal effective concentration was 2.5 µM.

What about the minimal effective concentration (read-out: Min. effective conc. that elicits vacuolation) of the same compound?
The minimal effective concentration was 0.625 µM.

Read-outs that look alike come from different tables or passages of the source.
